# Binding of CDR-mutated scFvs to a peptide of the spike HR2 region

Values reported by Engelhart et al. 2022, doi:10.1038/s41597-022-01779-4 (FLAb copy).

Target peptide (SARS-CoV-2 spike, HR2 region): PDVDLGDISGINAS

Parent scFv Ab-14: VH joined to VL by a (GGGGS)3 linker. Changes lie in the light chain CDRs alone.
VH: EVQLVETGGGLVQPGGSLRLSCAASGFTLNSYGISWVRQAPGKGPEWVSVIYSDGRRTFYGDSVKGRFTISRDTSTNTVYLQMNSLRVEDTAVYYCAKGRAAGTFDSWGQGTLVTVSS
VL: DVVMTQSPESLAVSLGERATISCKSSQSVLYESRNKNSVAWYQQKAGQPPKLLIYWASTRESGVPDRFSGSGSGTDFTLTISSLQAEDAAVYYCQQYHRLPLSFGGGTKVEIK

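The parent was found by panning a naive human phage display library on the peptide. AAYL50 was designed without a model: most single CDR substitutions and a random sample of double and triple ones. Affinity was read by AlphaSeq, a pooled yeast mating assay with surface-displayed partners. Binding brings cells together so that they mate, and sequencing counts the barcode pairs among the diploids. A regression on co-assayed BCL2-family reference pairs converts the normalised counts of each replicate to an apparent Kd. Mating was done three times.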

Positions count from residue 1 of the parent VL; S25M puts M in place of S.
This list gathers variants with a substitution at P101 (VL, numbered from residue 1).
Values are log10 of the apparent Kd in nM; lower means stronger binding.
A mean of the replicates is given; it leaves out those without a signal.
"ND" means that the variant was in the library but no mating with the target was seen in that replicate; the authors take this as a sign of poor binding, and no number exists.
The list is sorted by this average, lowest first, undetected variants last.

The variant S25M P101K gave -0.12, 0.20, 0.17 (mean 0.08).
The variant Q96K P101Q gave 0.74, 0.97, 1.00 (mean 0.90).
The variant E61P P101V S103K gave 1.47, 1.82, 1.96 (mean 1.75).
The variant S25E S33R P101M gave 2.38, 1.64, 2.13 (mean 2.05).
The variant S25A P101E L102W gave ND, 2.72, ND.
The variant P101M S103H gave ND, 2.76, ND.
The variant R60H Y97E P101G gave 3.68, 2.98, ND (mean 3.33).
The variant P101W gave 3.56, 3.34, ND (mean 3.45).
The variant S28E R34D P101C gave ND, 3.46, ND.
The variant R60T Q95K P101Y gave ND, 3.61, ND.
The variant Q27N Q96C P101K gave ND, 3.64, ND.
The variant Y97R P101F gave 3.05, 4.68, ND (mean 3.87).
The variant S28K L30C P101S gave 4.79, 3.33, 4.56 (mean 4.22).
The variant S33Y A40Q P101K gave 4.35, ND, ND.
The variant S26W Y97D P101M gave 3.90, 4.89, ND (mean 4.40).
The variant A57P R60D P101G gave ND, 4.41, ND.
The variant H98C P101E gave 5.28, 3.61, ND (mean 4.44).
The variant N35G E61P P101Y gave ND, 4.78, ND.
The variant K36V S38I P101K gave 5.70, 4.96, ND (mean 5.33).
The variant K24N V39W P101V gave ND, ND, 6.21.
The variant E32H A57K P101M gave ND, ND, ND.
The variant A57W S58D P101E gave ND, ND, ND.
The variant V29E V39L P101F gave ND, ND, ND.
The variant Y97S L100K P101K gave ND, ND, ND.
The variant R60Y P101T gave ND, ND, ND.
The variant Y31T E32K P101Y gave ND, ND, ND.
The variant K24W S58G P101E gave ND, ND, ND.
The variant Y31G S58A P101M gave ND, ND, ND.
The variant V39E P101M gave ND, ND, ND.
The variant R60E P101Q L102H gave ND, ND, ND.
The variant K24R E32Y P101K gave ND, ND, ND.
The variant A40R A57V P101W gave ND, ND, ND.

Repeated from above, the 5 best binders with a signal in all replicates:

{"changes": "S25M P101K", "replicates, log10 nM": "-0.12, 0.20, 0.17", "mean, log10 nM": "0.08"}
{"changes": "Q96K P101Q", "replicates, log10 nM": "0.74, 0.97, 1.00", "mean, log10 nM": "0.90"}
{"changes": "E61P P101V S103K", "replicates, log10 nM": "1.47, 1.82, 1.96", "mean, log10 nM": "1.75"}
{"changes": "S25E S33R P101M", "replicates, log10 nM": "2.38, 1.64, 2.13", "mean, log10 nM": "2.05"}
{"changes": "S28K L30C P101S", "replicates, log10 nM": "4.79, 3.33, 4.56", "mean, log10 nM": "4.22"}

Background: pairings of library AAYL50 with three empty control strains gave a value in 18% of cases (median 4.19, 5th percentile 2.99). Values in that range, when seen in few replicates, are hard to tell from nonspecific mating.
In this assay the parent's reference entry averaged 0.65; its copy inside this library read 1.68.